Experimental data taken from PubChem BioAssay (NCATS).
“And” between values parts separate entries of the source, which are not always exact repeats. Equal values may be shown once. This is a selection; strong and weak results do not stand in their true shares. Records with an inconclusive call do not appear. The source made the active and inactive calls. Unless noted, calls follow the shape of the dose curve; as a rule, active = well fitted curve in the direction sought with a large enough effect; inconclusive = small, poorly fitted or top-dose-only effect, or another doubt; inactive = no such curve, though single readings can be large; an effect the other way counts as inactive or inconclusive.

Sequences of proteins named here, by UniProt entry; tags and fusion partners are left off. A change or cut given only in a name is not applied to a line headed by its entry.
UniProt O94782: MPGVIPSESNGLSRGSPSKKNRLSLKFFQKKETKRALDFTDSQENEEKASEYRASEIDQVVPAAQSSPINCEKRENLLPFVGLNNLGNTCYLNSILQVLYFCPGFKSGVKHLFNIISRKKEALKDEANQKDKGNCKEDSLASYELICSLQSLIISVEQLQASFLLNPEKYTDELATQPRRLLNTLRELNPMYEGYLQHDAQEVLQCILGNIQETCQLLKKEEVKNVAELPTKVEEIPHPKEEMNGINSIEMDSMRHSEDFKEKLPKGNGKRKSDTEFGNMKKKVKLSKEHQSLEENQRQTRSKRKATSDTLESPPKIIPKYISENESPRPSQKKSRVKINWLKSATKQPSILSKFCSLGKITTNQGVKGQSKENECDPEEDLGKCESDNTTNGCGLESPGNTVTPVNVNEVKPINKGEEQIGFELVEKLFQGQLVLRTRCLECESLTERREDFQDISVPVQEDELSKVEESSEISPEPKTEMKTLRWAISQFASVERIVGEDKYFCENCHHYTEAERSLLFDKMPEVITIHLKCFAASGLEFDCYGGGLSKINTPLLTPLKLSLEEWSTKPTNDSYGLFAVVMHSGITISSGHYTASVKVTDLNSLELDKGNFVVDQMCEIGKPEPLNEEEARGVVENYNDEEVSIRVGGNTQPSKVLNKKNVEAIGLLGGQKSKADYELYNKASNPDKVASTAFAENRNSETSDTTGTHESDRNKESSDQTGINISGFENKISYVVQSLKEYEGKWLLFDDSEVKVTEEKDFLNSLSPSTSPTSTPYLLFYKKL
UniProt O94925: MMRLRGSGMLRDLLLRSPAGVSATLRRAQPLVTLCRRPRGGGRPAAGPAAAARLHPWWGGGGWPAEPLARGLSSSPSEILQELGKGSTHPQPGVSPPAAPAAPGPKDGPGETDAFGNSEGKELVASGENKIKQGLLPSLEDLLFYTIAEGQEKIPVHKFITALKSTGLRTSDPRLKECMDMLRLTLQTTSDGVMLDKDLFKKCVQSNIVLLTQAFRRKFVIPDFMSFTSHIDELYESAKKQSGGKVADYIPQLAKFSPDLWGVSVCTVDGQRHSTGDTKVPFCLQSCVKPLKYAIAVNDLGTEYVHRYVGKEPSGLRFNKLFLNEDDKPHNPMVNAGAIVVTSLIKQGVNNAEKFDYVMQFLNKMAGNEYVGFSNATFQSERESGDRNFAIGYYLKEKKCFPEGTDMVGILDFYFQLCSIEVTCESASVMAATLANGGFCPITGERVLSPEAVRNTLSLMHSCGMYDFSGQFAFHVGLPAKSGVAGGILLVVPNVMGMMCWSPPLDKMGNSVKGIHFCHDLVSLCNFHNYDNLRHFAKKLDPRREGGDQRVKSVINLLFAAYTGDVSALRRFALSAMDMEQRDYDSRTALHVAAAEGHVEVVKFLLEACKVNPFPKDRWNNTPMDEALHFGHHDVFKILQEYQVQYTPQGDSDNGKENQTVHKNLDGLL
UniProt P43220, whole entry, looked up: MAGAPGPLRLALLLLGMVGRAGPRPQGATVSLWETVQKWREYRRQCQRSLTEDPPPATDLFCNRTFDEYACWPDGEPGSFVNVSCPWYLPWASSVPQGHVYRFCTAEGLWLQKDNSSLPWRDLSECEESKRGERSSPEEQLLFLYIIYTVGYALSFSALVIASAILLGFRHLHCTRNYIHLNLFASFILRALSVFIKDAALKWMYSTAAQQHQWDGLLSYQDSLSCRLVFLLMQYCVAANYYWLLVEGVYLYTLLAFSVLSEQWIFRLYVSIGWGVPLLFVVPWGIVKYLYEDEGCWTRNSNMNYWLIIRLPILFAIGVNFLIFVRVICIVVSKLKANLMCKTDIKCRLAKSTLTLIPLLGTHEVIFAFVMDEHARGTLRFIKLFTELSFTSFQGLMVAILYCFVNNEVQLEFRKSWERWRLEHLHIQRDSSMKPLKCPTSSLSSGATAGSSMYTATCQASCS
UniProt P15289: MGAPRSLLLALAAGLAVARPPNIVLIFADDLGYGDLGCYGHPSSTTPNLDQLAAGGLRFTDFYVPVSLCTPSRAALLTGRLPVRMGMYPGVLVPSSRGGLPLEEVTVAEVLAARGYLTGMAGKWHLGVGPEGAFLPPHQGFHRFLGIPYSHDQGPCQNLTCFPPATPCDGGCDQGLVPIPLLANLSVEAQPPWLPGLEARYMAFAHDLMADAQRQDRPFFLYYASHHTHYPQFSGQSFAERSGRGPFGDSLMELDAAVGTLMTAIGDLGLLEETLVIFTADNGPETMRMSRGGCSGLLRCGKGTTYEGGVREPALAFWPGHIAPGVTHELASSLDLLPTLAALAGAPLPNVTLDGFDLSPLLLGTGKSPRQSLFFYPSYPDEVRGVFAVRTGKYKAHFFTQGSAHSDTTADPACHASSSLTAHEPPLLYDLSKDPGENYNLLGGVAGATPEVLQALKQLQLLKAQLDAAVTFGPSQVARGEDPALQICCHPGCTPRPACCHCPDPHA
UniProt P35557, whole entry, looked up: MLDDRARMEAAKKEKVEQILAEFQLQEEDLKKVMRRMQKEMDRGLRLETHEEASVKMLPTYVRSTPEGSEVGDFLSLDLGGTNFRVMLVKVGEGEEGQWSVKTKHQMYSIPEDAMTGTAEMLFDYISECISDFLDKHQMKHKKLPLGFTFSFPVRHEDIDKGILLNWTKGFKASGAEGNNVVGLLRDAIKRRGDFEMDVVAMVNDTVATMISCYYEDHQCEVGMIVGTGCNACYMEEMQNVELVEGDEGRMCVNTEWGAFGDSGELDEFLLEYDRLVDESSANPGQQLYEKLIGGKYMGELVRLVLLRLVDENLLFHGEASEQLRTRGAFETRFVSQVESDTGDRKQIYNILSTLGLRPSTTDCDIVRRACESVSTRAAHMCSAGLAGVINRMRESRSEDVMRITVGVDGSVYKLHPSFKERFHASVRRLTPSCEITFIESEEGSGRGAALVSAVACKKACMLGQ
UniProt Q14397: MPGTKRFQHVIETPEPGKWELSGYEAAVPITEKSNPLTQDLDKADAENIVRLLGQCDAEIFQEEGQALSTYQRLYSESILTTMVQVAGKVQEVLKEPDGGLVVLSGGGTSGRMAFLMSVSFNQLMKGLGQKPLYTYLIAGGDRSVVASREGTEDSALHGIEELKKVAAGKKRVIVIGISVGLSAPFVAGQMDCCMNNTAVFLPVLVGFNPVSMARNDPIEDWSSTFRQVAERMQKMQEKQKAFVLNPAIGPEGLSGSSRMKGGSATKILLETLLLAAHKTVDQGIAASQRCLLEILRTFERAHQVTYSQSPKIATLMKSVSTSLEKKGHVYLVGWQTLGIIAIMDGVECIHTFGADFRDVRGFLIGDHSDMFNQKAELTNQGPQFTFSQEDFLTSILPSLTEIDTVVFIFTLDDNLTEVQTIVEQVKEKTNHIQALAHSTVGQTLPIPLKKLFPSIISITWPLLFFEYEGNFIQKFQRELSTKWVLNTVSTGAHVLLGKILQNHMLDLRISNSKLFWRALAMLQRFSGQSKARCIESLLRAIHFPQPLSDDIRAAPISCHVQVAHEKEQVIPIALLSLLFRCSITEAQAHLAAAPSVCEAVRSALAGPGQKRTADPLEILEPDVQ

What was measured:
[1] = Inducers of the Endoplasmic Reticulum Stress Response (ERSR) in human glioma: Validation (AID 504836); conditions: human glioma cells, ER stress response reporter; at 38.3 µM (top of the series); also: 0% is about no effect
Method in brief: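 ERSR induction read as luciferase luminescence (Bright-Glo, 10 min at room temperature) in stably transfected human U87-MG glioma cells exposed to compounds for 16 h, using GRP78 as sensor.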

[2] = target: Ubiquitin carboxyl-terminal hydrolase 1 (Homo sapiens) (UniProt O94782); assay: Inhibitors of USP1/UAF1: Pilot qHTS (AID 504865); conditions: purified USP1/UAF1, Ub-rhodamine cleavage fluorescence; at 114 µM (top of the series);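 also: rhodamine fluorescence freed from ubiquitin-rhodamine substrate followed over time; top concentration of the series differs between compounds; % is scaled to controls: 0 for no effect and ±100 for the full control effect; nearly all actives have a fitted effect of over 35% in size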
[3] = qHTS for Inhibitors of ATXN expression: Validation of Cytotoxic Assay (AID 588349); conditions: cytotoxicity counter-screen for ATXN expression inhibitors, cell viability; at 57.1 µM (top of the series); also: % is scaled to controls: 0 for no effect and ±100 for the full control effect
Method in brief: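 HEK293 cells treated with titrated compound for 72 hr at 37 degrees C; viability read as intracellular ATP by CellTiter Glo luminescence.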

[4] = target: Glutaminase kidney isoform, mitochondrial (Homo sapiens) (UniProt O94925); assay: qHTS for Inhibitors of Glutaminase (GLS): LOPAC Validation (AID 624146);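 also: glutamate product detected by oxidase and peroxidase coupled Amplex red fluorescence gain; % is scaled to controls: 0 for no effect and ±100 for the full control effect; nearly all actives have a fitted effect of over 60% in size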
Method in brief: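 Coupled fluorescence readout: glutamate oxidase/HRP/Amplex Red detect glutamate formed by hKGA from L-glutamine (1 mM solution added). Buffer 45 mM KH2PO4 pH 8.2, 0.02% Tween-20; reads at t0 and 30 min RT.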

[5] = target: Glucagon-like peptide 1 receptor (Homo sapiens) (UniProt P43220); assay: qHTS of GLP-1 Receptor Agonists: LOPAC Validation (AID 624148); conditions: GLP-1R agonist cell assay; at 46.1 µM (top of the series);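 also: luminescence from a luciferase reporter switched on by cAMP; 0% is about no effect; higher luminescence signal means agonism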
Method in brief: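 Agonism scored as increased luciferase luminescence driven by cAMP in HEK293 clones carrying GLP-1R. Cells settled 12 hours, received compound for 4-6 hr at 37 deg C, 5% CO2, and were read after 12 min detection reagent at RT.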

[6] = qHTS of Nrf2 Activators: LOPAC Validation (AID 624149); conditions: Nrf2/ARE reporter cell assay; at 46.1 µM (top of the series); also: 0% is about no effect
Method in brief: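 AREc32_Fluc cells, 1000/well in OPTI-MEM with 5% FBS, grown overnight, then exposed to compounds for 24 hr at 37 deg C, 5% CO2. ARE-driven firefly luciferase read by Steady-Glo luminescence after 30 min at RT.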

[7] = HTS Assay for Allosteric Antagonists of the Human D2 Dopamine Receptor: Hit Validation in HTRF (AID 624455); conditions: D2 receptor cells, HTRF cAMP read-out, antagonist mode; at 46.1 µM (top of the series);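 also: stable D1 dopamine receptor cell line scored for blocking the D1 response; % is scaled to controls: 0 for no effect and ±100 for the full control effect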
Method in brief: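 Hit validation in cells stably expressing the D1 dopamine receptor, run in HTRF format. Compounds were tested for their ability to inhibit the D1-mediated response.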

[8] = target: Arylsulfatase A (Homo sapiens) (UniProt P15289); assay: qHTS screen for enhancers of Arylsulfatase A (ASA1): LOPAC Validation Assay (AID 720538); conditions: ASA enzyme activity, LOPAC qHTS enhancer assay; activity change, positive = activation: at 57.5 µM (top of the series)
Method in brief: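 Read-out: fluorescence at Ex=525/Em=598 nm after 1N NaOH final stop. Patient fibroblasts carrying ASA-I179S had 48h compound exposure, then 14h room-temperature pNCS hydrolysis (0.5mM final) in lysis buffer. Signal increase = enhanced activity.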

[9] = qHTS for compounds that reverse cellular toxicity of Amyloid beta (A-beta) peptide in yeast: LOPAC Validation Assay (AID 720559); conditions: yeast expressing A-beta; at 46.1 µM (top of the series);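 also: plate controls were DMSO for no effect and equimolar ferric chloride plus clioquinol rescue for full effect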
Method in brief: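 OD600 growth readout after 48 hr at 30 C; A-beta-toxic yeast plus pinned compounds in medium. Normalization: DMSO = negative, equimolar FeCl3 + clioquinol = positive.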

[10] = qHTS for Activators of Parkin Expression: LOPAC Validation Assay (FLuc Reporter) (AID 720573;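 also: 0% = DMSO and 100% = positive control compounds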); conditions: Cell line, PRKN promoter firefly luciferase reporter, vehicle wells = 0, positive control = 100%; at 46.1 µM (top of the series)
Method in brief: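 FLuc luminescence read-out from a neuronal line expressing a Parkin-promoter-driven coincidence reporter. Cells treated 24 h at 37 C, 5% CO2 with compounds at 7 concentrations; signal increase normalized to DMSO and positive control.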

[11] = target: T1, Hexokinase-4 (Homo sapiens) + Glucokinase regulatory protein (Homo sapiens) (UniProt P35557+Q14397); assay: qHTS assay for inhibitors of recombinant human GCK-GKRP interaction: Diaphorase-coupled assay (AID 743205); conditions: G6PDH/diaphorase resorufin fluorescence; at 57.5 µM (top of the series)
Method in brief: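 Resorufin fluorescence (525/590 nm), read each minute over 30 min, reports GCK activity coupled via G6PDH and diaphorase. Reaction: 10 nM GST-GCK, 10 nM FLAG-GKRP, 5 mM glucose, 0.4 mM ATP, 0.15 mM NADP+, 0.1 mM resazurin.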

[12] = target: T1, Hexokinase-4 (Homo sapiens) + Glucokinase regulatory protein (Homo sapiens); assay: qHTS assay for inhibitors of recombinant human GCK-GKRP interaction: ADP-Glo assay (AID 743206); conditions: ADP-Glo luminescence, 60 min, 0% = vehicle-only wells with enzyme present; at 76.9 µM (top of the series);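 also: plate controls were DMSO plus enzyme for no effect and no enzyme for full effect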
Method in brief: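 GST-GCK and FLAG-GKRP (15 nM each in the dispensed mix, with 2 uM S6P) react with 0.4 mM ATP and 5 mM glucose (final) in Hepes pH 7.6 for 60 min at room temperature. ADP is measured by ADP-Glo luminescence.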

[13] = target: T1, Hexokinase-4 (Homo sapiens) + Glucokinase regulatory protein (Homo sapiens); assay: qHTS assay for inhibitors of recombinant human GCK-GKRP interaction: HTRF assay (AID 743207); conditions: recombinant GCK-GKRP HTRF binding, 60 min, with sorbitol-6-phosphate; at 57.5 µM (top of the series);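 also: 0% = DMSO with GCK present and -100% = DMSO wells lacking GCK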
Method in brief: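 HTRF read-out (ex 320 nm; 615/665 nm emission) after 60 min RT equilibration of 5 nM GST-GCK, 5 nM FLAG-GKRP, 2 uM S6P, compound and anti-FLAG/anti-GST detection antibodies; signal normalized between DMSO wells with and without GCK.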

[14] = qHTS Assay for Identifying Gametocytocidal Compounds (AID 743244);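 also: % is scaled to controls: 0 for no effect and ±100 for the full control effect; actives lower the fluorescent signal which means gametocytes are killed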; conditions: P. falciparum 3D7 stage III-V gametocytes, alamarBlue, 72 h; max response: hits give low values
[15] = Natriuretic polypeptide receptor (hNpr1) antagonism - Pilot counterscreen GloSensor control cell line (AID 1347045; calls by dose curve; also: % is scaled to controls: 0 for no effect and ±100 for the full control effect); conditions: GloSensor cAMP control cell line, luminescence counterscreen; at 38.3 µM (top of the series)
Method in brief: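 HEK293 cGMP GloSensor cells preloaded 2 h with 2% GloSensor reagent, then compound 30 min before baseline luminescence read. Stimulated with 50 uM sodium nitroprusside, 20 min at room temperature, then read again; counterscreen for Npr1 antagonism.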

CN(C(=O)Cc1ccc(Cl)c(Cl)c1)[C@H]1CCCC[C@@H]1N1CCCC1
inactive: activation [1] -3.32% and -1.65% | activity change, negative = inhibition [2] -8.83% [middle of 5 runs] | activity change, negative = cytotoxicity [3] -29% and -28.2% | Potency [4] | activation [5] -1.23% and -1.31% | activation [6] -1.33% and -1.99% | activity, negative = inhibition [7] -9.1% and 4.59% | outcome [8] | growth rescue, positive = activation [9] -1.88% and -3.11% | activation [10] -19.6% and -10.6% | activity change, positive = activation [11] -2.24% and -2.34% | activity, positive = activation [12] -1.84% and -0.734% | activity change, negative = inhibition [13] 7.76% and -4.26% | max response [14] 7.49% | activity change, negative = inhibition [15] -8.45% and 4.86%
